{"source": "patent US4088752A", "about": "“Oral composition for plaque and caries inhibition” (Gaba AG, priority 1974, dated 1978)", "assay": "Postmortal rat molar solubility (molar surface dissolution rate)", "type": "in vivo, Osbourne-Mendel rats", "settings": "per mand: m1 + m2 in 10 ml 0.025 M acetate buffer pH 4, 60 min., 37° C; standard error 5.7", "procedure": "0.1 ml of the test solutions were applied once daily during the whole 20-day experimental period in which diet 2000a and tap water were available ad libitum. On day 22 the animals were superinfected twice with Streptococcus mutans OMZ 176. Caries, molar surface dissolution rate and fluoride content were assessed acccording to routine procedures."}
{"substance": "N-(2-hydroxyethyl)-2-heptadecen-9-yl-imidazoline orthophosphate [Example 6]", "values": [{"measurement": "Postmortal rat molar solubility", "result": 134, "unit": "μgP"}]}
